Results on 1 compound are retold here after patent publication US20030013744A1, “3,4-diaryl thiophenes and analogs thereof having use as anti-inflammatory agents” (G.D. Searle & Co., priority 1993, published 2003).

In the test the target is T1, Murine COX II (Mus musculus, UniProt Q05769).
T1 construct: A 2.0 kb fragment containing the coding region; made in house; host or cells: SF9 insect cells (baculovirus, transfer vector pVL1393)
T1 sequence (Q05769 18-604): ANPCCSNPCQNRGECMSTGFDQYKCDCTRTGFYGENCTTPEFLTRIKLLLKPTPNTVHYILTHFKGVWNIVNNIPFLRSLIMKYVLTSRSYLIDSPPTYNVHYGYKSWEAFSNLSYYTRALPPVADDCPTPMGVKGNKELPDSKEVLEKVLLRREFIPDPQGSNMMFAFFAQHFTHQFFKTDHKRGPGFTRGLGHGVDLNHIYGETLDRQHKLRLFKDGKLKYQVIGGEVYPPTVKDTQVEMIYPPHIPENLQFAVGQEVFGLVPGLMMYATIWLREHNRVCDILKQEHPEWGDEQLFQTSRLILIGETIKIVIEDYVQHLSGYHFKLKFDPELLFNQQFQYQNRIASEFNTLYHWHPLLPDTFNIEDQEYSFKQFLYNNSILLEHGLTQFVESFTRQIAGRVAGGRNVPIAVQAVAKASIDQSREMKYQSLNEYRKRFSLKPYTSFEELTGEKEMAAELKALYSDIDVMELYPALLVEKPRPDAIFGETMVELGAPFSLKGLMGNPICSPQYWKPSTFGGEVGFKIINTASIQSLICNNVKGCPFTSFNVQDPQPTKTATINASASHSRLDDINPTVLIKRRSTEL
Description: Assay for COX II activity in vitro (PGE2 ELISA, recombinant enzyme). The format is biochemical. The following applies: read-out: Murine COX II ID50. For orientation: An ELISA detects its analyte on a solid surface through an enzyme-linked reagent.

SMILES strings stand for the structures.

In the case of `CS(=O)(=O)c1ccc(-c2csc(Br)c2-c2ccc(F)cc2)cc1` [Example 2, 4(4-Methylsulfonylphenyl)-3-(4-fluorophenyl)-2-bromothiophene], the IC50 was < 100 nM.
